Three molecules from PubChem BioAssay AID624173 (National Center for Advancing Translational Sciences (NCATS), 2012) can be followed below.

Molecules are shown by their SMILES. Only a part is listed here, and it is no random draw. Calls of active or inactive are those of the source. Calls follow the shape of the dose curve; as a rule, active = well fitted inhibition curve with a large enough effect; inconclusive = small, poorly fitted or top-dose-only effect; inactive = flat fitted curve, though single readings scatter.

This experiment has as its target pyruvate kinase (Trypanosoma brucei) (UniProt Q57TT1). Briefly: qHTS of Trypanosoma Brucei Inhibitors. Also: nearly all actives have a fitted effect of over 50% in size. As to conditions: TbPYK enzyme, Kinase-Glo Plus ATP luminescence, 45 min. In general terms: Quantitative high-throughput screening tests each substance at several concentrations.
% is scaled to controls: 0 for no effect and ±100 for the full control effect.

Regarding `CCC(=O)N(c1ccccc1)C1(COC)CCN(CCn2nnn(CC)c2=O)CC1`, the activity, negative = inhibition is inactive: 5.49% (at 76.8 µM (top of the series)) and inactive: 0% (at 157 µM (top of the series)). As to `CCC(=O)N(c1ccccc1)C1(COC)CCN(CCc2cccs2)CC1`, the activity, negative = inhibition was inactive: 0.552% (at 76.8 µM (top of the series)) and inactive: -12.2% (at 157 µM (top of the series)). For the molecule `CN(CCCl)CCCl`, for the setting “at 76.8 µM (top of the series)”, the activity, negative = inhibition was inactive: 1.94%.
